Among the data in publication PMC8286831, “Identifying SARS-CoV-2 antiviral compounds by screening for small molecule inhibitors of nsp13 helicase” (Biochemical Journal, 2021) are IC50 values, retold here.

Structures are written as SMILES. pIC50: −log10 of the molar value.

The target of the experiment is SARS-CoV-2 nsp13 helicase (Severe acute respiratory syndrome coronavirus 2, UniProt P0DTD1). The experiment can be described thus: biochemical. To be noted: IC50 + 0.02% Tween-20.

One may read the pIC50 as the negative decadic logarithm of the IC50, by convention in mol/L. For `Cc1ccc(C(=O)Nc2ccc(S(=O)(=O)O)c3cc(S(=O)(=O)O)cc(S(=O)(=O)O)c23)cc1NC(=O)c1cccc(NC(=O)Nc2cccc(C(=O)Nc3cc(C(=O)Nc4ccc(S(=O)(=O)O)c5cc(S(=O)(=O)O)cc(S(=O)(=O)O)c45)ccc3C)c2)c1` [Suramin], the pIC50 is 5.96.
